Measurements from patent US20260275279A1, “THYROCYTES AND USES THEREOF” (LifeNet Health, priority 2023, published 2026).

By UniProt entry, the sequences of proteins in these tests, tags left out. Residues count along the entry.
UniProt P16473, 21-764: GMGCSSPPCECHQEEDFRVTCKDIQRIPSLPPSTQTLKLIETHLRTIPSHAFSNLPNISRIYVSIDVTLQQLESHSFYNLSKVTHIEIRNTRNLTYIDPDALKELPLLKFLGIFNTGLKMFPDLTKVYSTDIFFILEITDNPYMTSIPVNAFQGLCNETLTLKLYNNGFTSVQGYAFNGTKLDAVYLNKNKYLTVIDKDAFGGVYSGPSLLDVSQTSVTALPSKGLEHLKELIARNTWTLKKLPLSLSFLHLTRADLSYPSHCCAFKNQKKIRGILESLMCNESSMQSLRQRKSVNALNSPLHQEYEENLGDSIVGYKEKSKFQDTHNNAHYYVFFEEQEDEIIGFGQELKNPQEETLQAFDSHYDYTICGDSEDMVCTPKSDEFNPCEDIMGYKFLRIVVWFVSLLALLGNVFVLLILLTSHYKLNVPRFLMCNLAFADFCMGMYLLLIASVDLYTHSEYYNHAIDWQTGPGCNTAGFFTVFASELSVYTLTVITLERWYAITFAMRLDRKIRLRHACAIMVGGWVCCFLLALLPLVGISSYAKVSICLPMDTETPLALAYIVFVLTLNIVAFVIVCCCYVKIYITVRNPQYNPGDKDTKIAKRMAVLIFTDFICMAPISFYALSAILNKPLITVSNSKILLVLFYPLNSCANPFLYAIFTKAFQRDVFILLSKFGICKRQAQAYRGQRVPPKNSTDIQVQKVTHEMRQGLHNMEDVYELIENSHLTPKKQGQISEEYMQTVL

Molecular target: T1, TSHR (Homo sapiens, UniProt P16473)
T1 construct: Thyroid epithelial cells (passage 1) from healthy adult donors; endogenous in cells; host or cells: cryopreserved primary human thyrocytes (passage 1) from healthy adult donors
Assay: TG mRNA expression induced by TSHR activators in 2D primary human thyrocytes (QPCR)
Assay type: cell-based
Settings: 2D culture, TSHR activator for 8 days, donors n=3; read-out: half-maximal effective concentration (EC50), TG mRNA expression
Description: Methods: Thyroid epithelial cells (passage 1) from healthy adult donors (males and females; ≤55 years of age; body mass index of ≤35) were cryopreserved in a serum-free biopreservation medium. Cryopreserved cells from individual donors (n=3) were thawed in human thyrocyte plating medium (HTPM) and plated in 96-well TC-treated culture plates. The thyrocytes were maintained in an h7H-based culture medium containing a TSHR activator for 8 days. Thyroglobulin (TG) mRNA and protein levels were determined using QPCR and ELISA, respectively.
Cell culture of cryopreserved thyrocytes: Thyrocytes from healthy donors were isolated as described in Example 1 and cryopreserved as in Example 2. […] The cryopreserved thyrocytes (p1) were thawed in h7H base human thyrocyte plating media (HTPM) and plated in 96-well TC-treated culture plates. Cell cultures were treated with native TSHR activators (bovine and human) or antibody-based activators (M22 IgG (+) and K1-18 IgG (+)) on day 2-8.
Assay analysis: For mRNA analysis, total RNA was isolated using Qiagen RNEasy Mini Kit (Qiagen, 74106) and quantified with NanoDrop 8000 spectrophotometer (ThermoFisher, ND-8000-GL). […]

## human TSH: native TSHR activator, human thyroid stimulating hormone
  EC50: 384 pM
